Experiment [1] addresses Oxysterols receptor LXR-beta (Rattus norvegicus) (UniProt Q62755). Nature of the experiment: Transactivation of rat LXRbeta expressed in HEK293FT cells measured after 14 to 18 hrs by dual-luciferase reporter gene assay relative to T0901317. The format is cell-based.
In experiment [2] the target is Oxysterols receptor LXR-beta (Rattus norvegicus, UniProt Q62755). The experiment is described as follows: Transactivation of rat LXRbeta expressed in HEK293FT cells measured after 14 to 18 hrs by dual-luciferase reporter gene assay. The format is cell-based.

By UniProt entry, the sequences of proteins in these tests, tags left out.
UniProt Q62755, whole entry: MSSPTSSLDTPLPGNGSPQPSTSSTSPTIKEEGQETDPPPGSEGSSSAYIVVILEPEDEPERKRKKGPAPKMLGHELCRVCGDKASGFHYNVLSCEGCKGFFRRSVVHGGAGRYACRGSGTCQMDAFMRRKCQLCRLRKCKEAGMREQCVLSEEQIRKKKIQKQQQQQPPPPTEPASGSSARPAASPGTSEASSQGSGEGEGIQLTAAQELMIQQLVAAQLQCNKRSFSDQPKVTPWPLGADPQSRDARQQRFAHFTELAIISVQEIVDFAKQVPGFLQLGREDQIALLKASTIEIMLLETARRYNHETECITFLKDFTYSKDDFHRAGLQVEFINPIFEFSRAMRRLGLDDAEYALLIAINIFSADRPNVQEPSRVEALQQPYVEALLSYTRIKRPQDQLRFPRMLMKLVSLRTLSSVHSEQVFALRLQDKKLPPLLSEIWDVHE

Our source for the Efficacy and EC50 values is ChEMBL document CHEMBL4339203, “Structural requirements of cholenamide derivatives as the LXR ligands” (Bioorg Med Chem Lett, 2019).

Regarding `C[C@H](C[C@H]1CCN(C)C1=O)[C@H]1CC[C@H]2[C@@H]3CC=C4C[C@@H](O)CC[C@]4(C)[C@H]3CC[C@]12C`, the Efficacy in experiment [1] turned out to be 66%.
Same read-out and setting: for `C[C@H](C[C@H]1CCCN(C)C1=O)[C@H]1CC[C@H]2[C@@H]3CC=C4C[C@@H](O)CC[C@]4(C)[C@H]3CC[C@]12C` the value was 117%; for `C[C@H](C[C@@H]1CCCN(C)C1=O)[C@H]1CC[C@H]2[C@@H]3CC=C4C[C@@H](O)CC[C@]4(C)[C@H]3CC[C@]12C`, 0.69%.
As to `O=S(=O)(c1ccccc1)N(CC(F)(F)F)c1ccc(C(O)(C(F)(F)F)C(F)(F)F)cc1` [T091317], a half-maximal effect in experiment [2] (EC50) was put at 30 nM.
Compound `C[C@H](C[C@@H]1CCN(C)C1=O)[C@H]1CC[C@H]2[C@@H]3CC=C4C[C@@H](O)CC[C@]4(C)[C@H]3CC[C@]12C` had an Efficacy in experiment [1] of 0.54%.
